Results reported in US20250320214A1, “ORGANIC COMPOUNDS” (INTRA-CELLULAR THERAPIES, INC., priority 2022, published 2025).
Read-outs that look alike come from different tables or passages of the source.

Columns and labels:
SERT = SERT (Homo sapiens, UniProt P31645); experiment: Receptor binding, SERT; details: for inhibition at 0.1 µM: at 100 nM
5-HT2A = 5-HT2A (Homo sapiens, UniProt P28223); experiment: Receptor binding, 5-HT2A; details: for inhibition at 0.1 µM: read-out: 5-HT2A maximum inhibition; for 5-HT2A maximum inhibition: 0.1 µM
Mu opioid receptor = Mu opioid receptor (Homo sapiens, UniProt P35372); experiment: Receptor binding, Mu opioid receptor; details: for inhibition at 0.1 µM: at 100 nM, read-out: Mu maximum inhibition
D2 = D2 (Homo sapiens, UniProt P14416); experiment: Receptor binding, D2
D1 = D1 (Homo sapiens, UniProt P21728); experiment: Receptor binding, D1; details: for inhibition at 0.1 µM: read-out: D1 maximum inhibition
[1] = at 200 nM, read-out: SERT maximum inhibition
[2] = at 100 nM, read-out: D2 maximum inhibition
[3] = read-out: D2 maximum inhibition
[4] = read-out: SERT maximum inhibition
[5] = (footnote c), read-out: SERT maximum inhibition

Compound | inhibition at 0.2 µM (SERT; [1]) [%] | inhibition at 0.1 µM (5-HT2A) [%] | inhibition at 0.1 µM (D2; [2]) [%] | inhibition at 0.1 µM (D1; at 100 nM) [%] | Ki (5-HT2A) [nM] | Ki (Mu opioid receptor) [nM] | further results
O=C1CN2c3c(cccc3[C@@H]3CN(CCCS(=O)(=O)c4ccc(F)cc4)CC[C@@H]32)N1 [compound 12, (6bR,10aS)-8-(3-((4-fluorophenyl)sulfonyl)propyl)-6b,7,8,9,10,10a-hexahydro-1H-pyrido[3′,4′:4,5]pyrrolo-[1,2,3-de]quinoxalin-2(3H)-one] | < 0 | 33 |  |  |  |  | inhibition at 0.1 µM (Mu opioid receptor): < 0%
CC(=O)Nc1cccc2c1N[C@H]1CCN(CCCC(=O)c3ccc(F)cc3)C[C@@H]21 [Ex. 15, N-((4aS,9bR)-2-(4-(4-fluorophenyl)-4-oxobutyl)-2,3,4,4a,5,9b-hexahydro-1H-pyrido[4,3-b]indol-6-yl)acetamide] | < 0 |  | 49 | 45 |  |  | inhibition at 0.1 µM (5-HT2A; at 100 nM): 80%; inhibition at 0.1 µM (Mu opioid receptor): 11%
N#Cc1cc(F)ccc1OCCCN1CC[C@H]2[C@@H](C1)c1cccc3c1N2CC(=O)N3 [Ex. 25] |  |  |  |  | 3.8 | 8.4 | Ki (SERT): 35 nM; Ki (D2): 43 nM; Ki (D1): 74 nM
NC(=O)c1cc(F)ccc1OCCCN1CC[C@H]2[C@@H](C1)c1cccc3c1N2CC(=O)N3 [Ex. 8, 5-fluoro-2-(3-((6bR,10aS)-2-oxo-2,3,6b,9,10,10a-hexahydro-1H-pyrido[3′,4′:4,5]pyrrolo[1,2,3-de]quinoxalin-8(7H)-yl)propoxy)benzamide] | 9.6 | 14 |  | 0.78 |  |  | inhibition at 100 µM (D2; at 100 μM (footnote b), read-out: D2 maximum inhibition): < 0%
O=C1CN2c3c(cccc3[C@@H]3CN(CCCOc4ccccc4)CC[C@@H]32)N1 [Ex. 3, (6bR,10aS)-8-(3-phenoxypropyl)-6b,7,8,9,10,10a-hexahydro-1H-pyrido[3′,4′:4,5]-pyrrolo[1,2,3-de]quinoxalin-2(3H)-one] |  |  |  |  | 2.84 |  | inhibition at 50 µM (SERT; at 50 μM (footnote a), read-out: SERT maximum inhibition): 8%; inhibition at 0.1 µM (D2; [3]): 34%; inhibition at 0.1 µM (D1): 24%
O=C1CN2c3c(cccc3[C@@H]3CN(CCCOc4ccc(F)cc4)CC[C@@H]32)N1 [Fm. A, (6bR,10aS)-8-(3-(4-fluorophenoxy)propyl)-6b,7,8,9,10,10a-hexahydro-1H-pyrido[3′,4′:4,5]pyrrolo[1,2,3-de]quinoxalin-2(3H)-one, reference compound] |  |  |  |  |  |  | inhibition at 0.1 µM (D1): 44%
CC(=O)Nc1cccc2c1N[C@H]1CCN(CCCC(O)c3ccc(F)cc3)C[C@@H]21 (stereo partly drawn) [Ex. 16, N-((4aS,9bR)-2-(4-(4-fluorophenyl)-4-hydroxybutyl)-2,3,4,4a,5,9b-hexahydro-1H-pyrido[4,3-b]indol-6-yl)acetamide] | < 0 |  | < 0 | < 0 |  |  | inhibition at 0.1 µM (5-HT2A; at 100 nM): < 0%; inhibition at 0.1 µM (Mu opioid receptor): < 0%
O=C1CN2c3c(cccc3[C@@H]3CN(CCCOc4ccc(F)cc4Cl)CC[C@@H]32)N1 [Ex. 19] | 23 |  | 80 | 33 | 0.6 | 3 | 
O=C1Nc2cccc3c2N([C@H]2CCN(CCCOc4ccc(F)cc4)C[C@@H]32)C1(F)F [Ex. 13, (6bR,10aS)-1,1-difluoro-8-(3-(4-fluorophenoxy)propyl)-6b,7,8,9,10,10a-hexahydro-1H-pyrido[3′,4′:4,5]pyrrolo[1,2,3-de]quinoxalin-2(3H)-one] | 6 |  | 7 | 24 |  |  | inhibition at 0.1 µM (5-HT2A; at 100 nM): 21%; inhibition at 0.1 µM (Mu opioid receptor): < 0%
CCCCN1CC[C@H]2[C@@H](C1)c1cccc3c1N2CC(=O)N3 [Ex. 1, (6bR,10aS)-8-butyl-6b,7,8,9,10,10a-hexahydro-1H-pyrido[3′,4′:4,5]pyrrolo[1,2,3-de]quinoxalin-2(3H)-one] |  | < 0 | 15 |  |  |  | inhibition at 0.2 µM (SERT; [4]): < 0%
CCc1cc(F)ccc1OCCCN1CC[C@H]2[C@@H](C1)c1cccc3c1N2CC(=O)N3 [Ex. 20] | 26 |  | 69 | 66 | 0.3 | 5.4 | 
CC(=O)Nc1cccc2c1N[C@H]1CCN(CCCOc3ccc(F)cc3)C[C@@H]21 [Ex. 14, N-((4aS,9bR)-2-(3-(4-fluorophenoxy)propyl)-2,3,4,4a,5,9b-hexahydro-1H-pyrido[4,3-b]indol-6-yl)acetamide] | 4 |  | 11 | 25 |  |  | inhibition at 0.1 µM (5-HT2A; at 100 nM): 67%; inhibition at 0.1 µM (Mu opioid receptor): 9%
O=C1CN2c3c(cccc3[C@@H]3CN(CCCOc4ccc(F)c(F)c4)CC[C@@H]32)N1 [Ex. 9, (6bR,10aS)-8-(3-(3,4-difluorophenoxy)propyl)-6b,7,8,9,10,10a-hexahydro-1H-pyrido[3′,4′:4,5]pyrrolo-[1,2,3-de]quinoxalin-2(3H)-one] |  |  |  |  | 16.1 | 1.83 | inhibition at 0.2 µM (SERT; [5]): 15%; inhibition at 0.1 µM (D2; [3]): 7%; inhibition at 0.1 µM (D1): 15%
Cc1cc(OCCCN2CC[C@H]3[C@@H](C2)c2cccc4c2N3CC(=O)N4)ccc1F [Ex. 21] |  |  | 0 | < 1 |  | 69 | inhibition at 0.1 µM (SERT; [4]): 14%; 5-HT2A maximum inhibition (5-HT2A): 77%
N#Cc1cc(OCCCN2CC[C@H]3[C@@H](C2)c2cccc4c2N3CC(=O)N4)ccc1F [Ex. 23] |  |  | 0 | 0 |  | 65 | inhibition at 0.1 µM (SERT; [4]): 13%; 5-HT2A maximum inhibition (5-HT2A): 35%
Cc1cc(F)cc(C)c1OCCCN1CC[C@H]2[C@@H](C1)c1cccc3c1N2CC(=O)N3 [Ex. 11, (6bR,10aS)-8-(3-(4-fluoro-2,6-dimethylphenoxy)propyl)-6b,7,8,9,10,10a-hexahydro-1H-pyrido[3′,4′:4,5]-pyrrolo[1,2,3-de]quinoxalin-2(3H)-one] |  | 40 | < 0 | < 0 |  |  | inhibition at 0.2 µM (SERT; [5]): 34%
O=C1CN2c3c(cccc3[C@@H]3CN(CCCC(=O)c4ccc(Cl)s4)CC[C@@H]32)N1 [Ex. 4, (6bR,10aS)-8-(4-(5-chlorothiophen-2-yl)-4-oxobutyl)-6b,7,8,9,10,10a-hexahydro-1H-pyrido[3′,4′:4,5]-pyrrolo[1,2,3-de]quinoxalin-2(3H)-one] |  |  | 41 | 34 | 18.3 | 8.15 | Ki (SERT): 66 nM
O=C1CN2c3c(cccc3[C@@H]3CN(CCCOc4ccc(F)c(Cl)c4)CC[C@@H]32)N1 [Ex. 22] |  |  | 0 | 0 |  | 74 | inhibition at 0.1 µM (SERT; [4]): 6%; 5-HT2A maximum inhibition (5-HT2A): 65%
O=C1CN2c3c(cccc3[C@@H]3CN(CCCOc4ccc(O)cc4)CC[C@@H]32)N1 [Ex. 6, (6bR,10aS)-8-(3-(4-hydroxyphenoxy)propyl)-6b,7,8,9,10,10a-hexahydro-1H-pyrido[3′,4′:4,5]pyrrolo[1,2,3-de]quinoxalin-2(3H)-one] | 11 | 77 |  | 0.86 |  |  | inhibition at 0.1 µM (D2; [3]): 41%
O=C1CN2c3c(cccc3[C@@H]3CN(CCCOc4ccc(OCc5ccccc5)cc4)CC[C@@H]32)N1 [Ex. 7, (6bR,10aS)-8-(3-(4-(benzyloxy)phenoxy)propyl)-6b,7,8,9,10,10a-hexahydro-1H-pyrido[3′,4′:4,5]-pyrrolo[1,2,3-de]quinoxalin-2(3H)-one] | 68 | 76 |  |  |  |  | inhibition at 0.1 µM (D2; [3]): 23%; inhibition at 0.1 µM (D1): 4.6%
CN1C(=O)CN2c3c(cccc31)[C@@H]1CN(CCCOc3ccc(F)cc3C#N)CC[C@@H]12 [Ex. 26] | 93 |  | 14 | 93 |  |  | inhibition at 0.1 µM (5-HT2A; at 100 nM): 91%; Mu maximum inhibition (Mu opioid receptor; concentration not printed in this table (row head: Mu (Ki, nM))): 5%
Cc1cc(F)ccc1OCCCN1CC[C@H]2[C@@H](C1)c1cccc3c1N2CC(=O)N3 [Ex. 18] | 32 |  | 69 | 40 | 0.4 | 2.9 | 
O=C1CN2c3c(cccc3[C@@H]3CN(CCCO)CC[C@@H]32)N1 [Ex. 2, (6bR,10aS)-8-(3-hydroxypropyl)-6b,7,8,9,10,10a-hexahydro-1H-pyrido[3′,4′:4,5]pyrrolo[1,2,3-de]quinoxalin-2(3H)-one] | < 0 | 8 |  |  |  |  | 
